Measured values as given in PubChem BioAssay AID651658 (Broad Institute, 2012).
The entries are a selection whose mix differs from that of the whole data set. Active and inactive are the calls of the source.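 How the source made its calls: active means mean Tm shift, scaled 0 neutral to 100 positive control, at about 1.3% or above, every replicate too (limit read from the data); inconclusive means no clear call, values can overlap the other calls; inactive means the rest.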

Chains of the proteins cited; added tags and fusions are not shown.
UniProt Q9HCT0, whole entry: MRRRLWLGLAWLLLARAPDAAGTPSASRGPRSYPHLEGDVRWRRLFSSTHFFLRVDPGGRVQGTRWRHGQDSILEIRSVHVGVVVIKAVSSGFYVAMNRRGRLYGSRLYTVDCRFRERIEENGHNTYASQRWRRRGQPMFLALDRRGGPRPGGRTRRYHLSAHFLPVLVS

Each compound was assayed against Fibroblast growth factor 22 (Homo sapiens) (UniProt Q9HCT0) (assay: FGF22 ligand-induced thermal stabilization – biophysical, thermal shift, single point, FGF22 synaptogenesis inhibitor project, primary screen (AID 651658)). Conditions: recombinant FGF22 thermal shift, SYPRO orange fluorescence; at 9.99 µM; hits give high values; percent of sucrose octasulfate shift, DMSO zero.

SMILES	activity (Tm shift, normalised)
NC(=O)Nc1ccc([As](=O)(O)O)cc1	inactive: 0.662%
